# Measurements as given in patent US11406643B2, “Targeting kinases for the treatment of cancer metastasis” (Board of Regents, The University of Texas System, priority 2017, dated 2022).
# System: EO771 cells
# Settings: CDK5 knockdown EO771 cells compared to control EO771 cells; FIG. 9A
smiles,measurement,value
CC[C@H](CO)Nc1nc(NCc2ccccc2)c2ncn(C(C)C)c2n1 [roscovitine],sensitivity of cells to roscovitine (cell viability curve),less sensitive
